For one assay, the target named is IDH1-R132H (Homo sapiens, UniProt O75874, R132H). Nature of the assay: Fluorescent determination of IDH1-R132H cell activity (2-HG in U87MGR132H cells). It counts as cell-based. Conditions: 2-HG inhibition in U87MGR132H cells transfected with IDH1-R132H mutant plasmid.
The next assay concerns the target IDH2-R140Q (Homo sapiens, UniProt P48735, R140Q). Put plainly: Fluorescent determination of IDH2-R140Q cell activity (2-HG in U87MGR140Q cells). Conditions: read-out: IC50 (2-HG inhibition), 72 hours incubation.

Sequences of proteins named here, by UniProt entry; tags and fusion partners are left off. Residues count along the entry.
UniProt O75874, whole entry R132H: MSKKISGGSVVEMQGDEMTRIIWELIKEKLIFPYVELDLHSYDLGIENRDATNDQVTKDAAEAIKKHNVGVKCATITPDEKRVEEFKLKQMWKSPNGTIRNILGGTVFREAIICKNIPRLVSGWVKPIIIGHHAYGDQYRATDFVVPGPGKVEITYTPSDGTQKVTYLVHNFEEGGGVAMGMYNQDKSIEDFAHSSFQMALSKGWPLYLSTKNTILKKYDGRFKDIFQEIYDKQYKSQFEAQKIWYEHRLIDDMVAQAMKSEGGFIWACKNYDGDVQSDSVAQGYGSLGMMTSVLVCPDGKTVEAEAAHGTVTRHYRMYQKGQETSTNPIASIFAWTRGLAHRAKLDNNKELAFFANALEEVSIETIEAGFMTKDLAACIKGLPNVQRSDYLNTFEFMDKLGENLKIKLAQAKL
UniProt P48735, 40-452 R140Q limits assumed: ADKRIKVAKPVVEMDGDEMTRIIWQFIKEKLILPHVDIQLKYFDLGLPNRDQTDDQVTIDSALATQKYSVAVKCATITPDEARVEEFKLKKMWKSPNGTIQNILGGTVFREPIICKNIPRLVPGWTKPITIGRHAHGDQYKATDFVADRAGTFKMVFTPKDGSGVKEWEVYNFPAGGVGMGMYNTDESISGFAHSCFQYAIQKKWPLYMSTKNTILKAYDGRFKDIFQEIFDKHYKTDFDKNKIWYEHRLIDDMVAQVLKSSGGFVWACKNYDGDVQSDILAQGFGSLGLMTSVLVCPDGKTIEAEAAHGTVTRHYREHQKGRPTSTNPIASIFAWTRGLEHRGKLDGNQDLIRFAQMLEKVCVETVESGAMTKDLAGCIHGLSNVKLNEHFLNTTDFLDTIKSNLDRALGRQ

As usually defined, the IC50 is the midpoint of a concentration-inhibition curve.

Turning to `C[C@@H](Nc1nc(NCC(F)(F)F)nc(C2=C(F)C(O)C(F)(F)CC2)n1)C(F)(F)F` (stereo partly drawn), the IC50 on IDH1-R132H was 715 nM; on IDH2-R140Q, 78 nM.

For `CCCNc1nc(N[C@H](C)C(F)(F)F)nc(C2=C(F)C(O)C(F)(F)CC2)n1` (mixture of isomers) [Compound 210], the IC50 on IDH1-R132H worked out at 1380 nM; at IDH2-R140Q, 56 nM. For `C[C@@H](Nc1nc(NC2CC2)nc(C2=C(F)C(O)C(F)(F)CC2)n1)C(F)(F)F` (mixture of isomers) [Compound 238] the same measures were 2620 nM and 50 nM. Consider `CC(C)(C)ONc1nc(Nc2ccc3sncc3c2)nc(C2=C(F)C(O)CCC2)n1` (racemic) [Compound 34], for which the IC50 is above 10000 nM against IDH1-R132H and 65 nM at IDH2-R140Q.

Take `CC(C)Nc1nc(N[C@H](C)C(F)(F)F)nc(C2=C(F)C(O)CCC2)n1` (single isomer, unassigned) [100]: at IDH2-R140Q, the half-maximal inhibitory concentration (IC50) was found to be 2900 nM.

As to `OC1CCCC(c2nc(NC3CC(F)(F)C3)nc(NC3CC(F)(F)C3)n2)=C1F` (single isomer, unassigned) [104], the IC50 at IDH2-R140Q came out at 2080 nM.

As for `C[C@@H](Nc1nc(N[C@H](C)C(F)(F)F)nc(C2=C(F)C(O)CCCC2)n1)C(F)(F)F` (single isomer, unassigned) [106], the IC50 at IDH1-R132H stood at 272 nM; on IDH2-R140Q, 106 nM. For `C[C@@H](Nc1nc(N[C@H](C)C(F)(F)F)nc(C2=C(F)C(O)CCCC2)n1)C(F)(F)F` (single isomer, unassigned) [107] the same measures were 1750 nM and 554 nM. For the compound `[2H]C1(O)CCCC(c2nc(NC3CC(F)(F)C3)nc(NC3CC(F)(F)C3)n2)=C1F` (single isomer, unassigned) [108], the IC50 at IDH2-R140Q stood at 2230 nM. `[2H]C1(O)CCCC(c2nc(N[C@H](C)C(F)(F)F)nc(N[C@H](C)C(F)(F)F)n2)=C1F` (single isomer, unassigned) [110]: the IC50 on IDH1-R132H came out at 160 nM; at IDH2-R140Q, 70 nM. As to `[2H]C1(O)CCCC(c2nc(N[C@H](C)C(F)(F)F)nc(N[C@H](C)C(F)(F)F)n2)=C1F` (single isomer, unassigned) [111], the IC50 at IDH2-R140Q is 2260 nM.

`[2H]C1([2H])CCC(c2nc(N[C@H](C)C(F)(F)F)nc(N[C@H](C)C(F)(F)F)n2)=C(F)C1([2H])O` (single isomer, unassigned) [112]: the IC50 at IDH2-R140Q was found to be 98 nM. The same measure, in the same setting: in the case of `[2H]C1([2H])CCC(c2nc(N[C@H](C)C(F)(F)F)nc(N[C@H](C)C(F)(F)F)n2)=C(F)C1([2H])O` (single isomer, unassigned) [113] it was 2060 nM; in that of `[2H]C1([2H])CCC(c2nc(NC3CC(F)(F)C3)nc(N[C@@H](C)C(F)(F)F)n2)=C(F)C1([2H])O` (single isomer, unassigned) [114], 1720 nM. The same measure, in the same setting: in the case of `[2H]C1([2H])CCC(c2nc(NC3CC(F)(F)C3)nc(N[C@@H](C)C(F)(F)F)n2)=C(F)C1([2H])O` (single isomer, unassigned) [115] it was 59 nM; in that of `[2H]C1([2H])CCC(c2nc(NC3CC(F)(F)C3)nc(NC3CC(F)(F)C3)n2)=C(F)C1([2H])O` (single isomer, unassigned) [116], 2620 nM; in that of `[2H]C1([2H])CCC(c2nc(NC3CC(F)(F)C3)nc(NC3CC(F)(F)C3)n2)=C(F)C1([2H])O` (single isomer, unassigned) [117], 95 nM. Regarding `CC(C)Nc1nc(N[C@@H](C)C(F)(F)F)nc(C2=C(F)C(O)CCC2)n1` (single isomer, unassigned) [118], the IC50 on IDH1-R132H came to 2140 nM; at IDH2-R140Q, 106 nM. For `CC(C)Nc1nc(N[C@@H](C)C(F)(F)F)nc(C2=C(F)C(O)CCC2)n1` (single isomer, unassigned) [119], in that order: above 10000 nM and 3390 nM.

In the case of `C[C@@H](Nc1nc(NC2CC(F)(F)C2)nc(C2=C(F)C(O)CCC2)n1)C(F)(F)F` (single isomer, unassigned) [120], the IC50 on IDH2-R140Q turned out to be 2400 nM. In the case of `C[C@@H](Nc1nc(NC2CC(F)(F)C2)nc(C2=C(F)C(O)CCC2)n1)C(F)(F)F` (single isomer, unassigned) [121], the IC50 on IDH1-R132H is 186 nM; at IDH2-R140Q, 68 nM.

`C[C@@H](Nc1nc(N[C@H](C)C(F)(F)F)nc(C2=CC(O)CCC2)n1)C(F)(F)F` (single isomer, unassigned) [148]: at IDH2-R140Q, the IC50 worked out at 1560 nM.

With `OC1C=C(c2nc(NC3CC(F)(F)C3)nc(NC3CC(F)(F)C3)n2)CCC1` (single isomer, unassigned) [150], on IDH2-R140Q, the IC50 is 541 nM. For the compound `OC1C=C(c2nc(NC3CC(F)(F)C3)nc(NC3CC(F)(F)C3)n2)CCC1` (single isomer, unassigned) [151], the IC50 against IDH1-R132H amounted to 256 nM; at IDH2-R140Q it was 39 nM.

As for `OC1C(F)=C(c2nc(NC3CC(F)(F)C3)nc(NC3CC(F)(F)C3)n2)CCC1(F)F` (single isomer, unassigned) [237], the IC50 at IDH2-R140Q was 1490 nM. Turning to `[2H]C1(O)C(F)=C(c2nc(N[C@H](C)C(F)(F)F)nc(N[C@H](C)C(F)(F)F)n2)CCC1(F)F` (single isomer, unassigned) [250], the 50% inhibitory concentration (IC50) against IDH1-R132H was determined as 2480 nM; at IDH2-R140Q, 2470 nM. Turning to `CC(C)Nc1nc(NC2CC(F)(F)C2)nc(C2=C(F)C(O)C(F)(F)CC2)n1` (single isomer, unassigned) [272], the IC50 at IDH1-R132H is 2090 nM; at IDH2-R140Q it was 51 nM. For `CC(C)Nc1nc(NC2CC(F)(F)C2)nc(C2=C(F)C(O)C(F)(F)CC2)n1` (single isomer, unassigned) [273] the same measures were above 10000 nM and 1230 nM.

`CC(C)(C)ONc1nc(Nc2ccnc(C(F)(F)F)c2)nc(C2=C(F)C(O)C(F)(F)CC2)n1` (single isomer, unassigned) [285]: the half-inhibitory concentration (IC50) against IDH1-R132H is 3590 nM; at IDH2-R140Q it was 34 nM.

As to `CC(C)(C)ONc1nc(Nc2ccnc(C(F)(F)F)c2)nc(C2=C(F)C(O)C(F)(F)CC2)n1` (single isomer, unassigned) [286], the IC50 at IDH1-R132H was above 10000 nM; on IDH2-R140Q, 165 nM.

`[2H]C1(O)C(F)=C(c2nc(NOC(C)(C)C)nc(Nc3ccnc(C(F)(F)F)c3)n2)CCC1(F)F` (single isomer, unassigned) [287]: the results for the IC50 against IDH1-R132H and on IDH2-R140Q were above 10000 nM and 95 nM, respectively. For `[2H]C1(O)C(F)=C(c2nc(NOC(C)(C)C)nc(Nc3ccnc(C(F)(F)F)c3)n2)CCC1(F)F` (single isomer, unassigned) [288] the same measures were 2700 nM and 35 nM. For `C[C@@H](Nc1nc(N[C@H](C)C(F)(F)F)nc(C2=CC(O)C(F)(F)CC2)n1)C(F)(F)F` (single isomer, unassigned) [292], in that order: 3640 nM and 3460 nM. For `C[C@@H](Nc1nc(NC2CC(F)(F)C2)nc(C2=C(F)C(O)C(F)(F)CC2)n1)C(F)(F)F` (stereo partly drawn) [Compound 259, 3-(4-((3,3-Difluorocyclobutyl)amino)-6-(((R)-1,1,1-trifluoropropan-2-yl)amino)-1,3,5-triazin-2-yl)-2,6,6-trifluorocyclohex-2-en-1-ol], in that order: 3510 nM and 1390 nM.

Source of the values: patent publication US12234211B2, “Cycloolefin substituted heteroaromatic compounds and their use” (HUTCHISON MEDIPHARMA LIMITED, priority 2017, dated 2025).
